Results taken from PMC6199309, “A therapeutic approach to pantothenate kinase associated neurodegeneration” (Nature Communications, 2018).

The chains behind the UniProt entries cited, without tags or fusion partners. Where a name states a change or a piece, a line headed by the entry shows the natural chain unless it says otherwise.
UniProt Q9H999: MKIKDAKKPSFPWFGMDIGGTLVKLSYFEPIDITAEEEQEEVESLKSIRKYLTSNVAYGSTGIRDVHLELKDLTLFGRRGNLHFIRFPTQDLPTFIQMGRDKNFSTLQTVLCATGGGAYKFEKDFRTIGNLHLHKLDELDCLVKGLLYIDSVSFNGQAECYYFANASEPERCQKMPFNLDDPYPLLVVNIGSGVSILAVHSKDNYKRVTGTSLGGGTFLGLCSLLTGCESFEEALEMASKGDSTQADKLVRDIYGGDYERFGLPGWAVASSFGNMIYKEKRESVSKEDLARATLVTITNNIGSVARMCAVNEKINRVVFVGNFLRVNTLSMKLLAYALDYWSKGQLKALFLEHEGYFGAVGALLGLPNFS

Columns and labels:
Caco2 permeability = type: in vitro ADME; details: human, Caco-2; read-out: Caco2 Permeability Efflux Ratio (B2A/A2B)
human PANK3 = human PANK3 (Homo sapiens, UniProt Q9H999); assay: PANK activity assay (radiochemical, without acetyl-CoA)

## CC(C)(C)c1ccc(NC(=O)N2CCN(c3ccc(C#N)cn3)CC2)cc1 [PZ-2789, N-(4-(tert-butyl)phenyl)-4-(5-cyanopyridin-2-yl)piperazine-1-carboxamide]
Caco2 permeability
  efflux ratio: 0.5
Human PANK3
  IC50: 0.844 µM

## CC(C)c1ccc(CC(=O)N2CCN(c3ccc(C#N)cn3)CC2)cc1 [PZ-2863]
Human PANK3
  IC50: 0.122 µM
Human PANK3; from PANK3 IC50 and ClogP
  LipE (pIC50 – ClogP): 3.6
